According to US20250313563A1, “GLYCOGEN SYNTHASE KINASE 3 INHIBITORS AND USES THEREOF” (The Broad Institute, Inc., priority 2022, published 2025):
Where two headings read alike, the source gives them in different places.

Chains of the proteins cited; added tags and fusions are not shown.
UniProt P49841, whole entry: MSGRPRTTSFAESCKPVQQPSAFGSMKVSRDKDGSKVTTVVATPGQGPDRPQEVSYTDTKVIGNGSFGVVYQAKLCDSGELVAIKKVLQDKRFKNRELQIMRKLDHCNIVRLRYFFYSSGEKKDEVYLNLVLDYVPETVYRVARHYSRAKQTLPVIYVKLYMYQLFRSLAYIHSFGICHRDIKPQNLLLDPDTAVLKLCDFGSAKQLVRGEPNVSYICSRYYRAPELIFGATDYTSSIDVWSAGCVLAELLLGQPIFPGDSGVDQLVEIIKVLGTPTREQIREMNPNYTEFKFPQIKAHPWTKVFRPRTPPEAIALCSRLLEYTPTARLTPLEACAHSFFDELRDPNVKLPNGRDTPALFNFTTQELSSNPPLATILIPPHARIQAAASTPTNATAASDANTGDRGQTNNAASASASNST
UniProt P49840, whole entry: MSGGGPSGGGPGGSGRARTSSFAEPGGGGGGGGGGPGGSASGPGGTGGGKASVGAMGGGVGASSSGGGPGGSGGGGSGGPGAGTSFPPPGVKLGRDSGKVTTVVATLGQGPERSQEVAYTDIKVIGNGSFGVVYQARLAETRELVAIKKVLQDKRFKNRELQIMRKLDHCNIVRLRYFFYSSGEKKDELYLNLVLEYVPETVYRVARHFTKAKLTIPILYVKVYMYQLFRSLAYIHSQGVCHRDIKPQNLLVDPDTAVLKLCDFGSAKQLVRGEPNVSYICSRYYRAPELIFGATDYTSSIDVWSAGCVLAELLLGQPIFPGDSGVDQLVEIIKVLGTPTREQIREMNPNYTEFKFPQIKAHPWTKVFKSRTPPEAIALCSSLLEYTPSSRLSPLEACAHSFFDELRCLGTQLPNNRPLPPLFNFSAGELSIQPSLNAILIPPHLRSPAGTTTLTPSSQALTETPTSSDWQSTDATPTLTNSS

Assays:
[1] = biological target: GSK3b (GST-full length GSK3b) (Homo sapiens (Human), UniProt P49841); assay: GSK3b TR-FRET kinase assay; type: biochemical
[2] = biological target: GSK3α (GST-full length GSK3α) (Homo sapiens (Human), UniProt P49840); assay: GSK3α TR-FRET kinase assay; type: biochemical
[3] = read-out: GSK3-B (TR-FRET 1 mM ATP), GMean, IC50, 1 mM ATP, geometric mean
[4] = read-out: GSK3-B TR-FRET BIOCHEMICAL (TR-FRET), GMean, IC50, 1 nM GSK3b, 2 μM ATP, 30 minute preincubation, geometric mean
[5] = read-out: GSK3-A (TR-FRET 1 mM ATP), GMean, IC50, 1 mM ATP, geometric mean
[6] = read-out: GSK3-A TR-FRET BIOCHEMICAL (TR-FRET), GMean, IC50, 1 nM GSK3α, 4 μM ATP, 30 minute preincubation, geometric mean
[7] = read-out: GSK3-B TR-FRET BIOCHEMICAL (TR-FRET), IC50, 1 nM GSK3b, 2 μM ATP, 30 minute preincubation
[8] = read-out: GSK3-A TR-FRET BIOCHEMICAL (TR-FRET), IC50, 1 nM GSK3α, 4 μM ATP, 30 minute preincubation
[9] = read-out: GSK3-B TR-FRET BIOCHEMICAL (TR-FRET), IC50, 1 nM GSK3b, 2 μM ATP, 30 minute preincubation (Table 16)
[10] = read-out: GSK3-A TR-FRET BIOCHEMICAL (TR-FRET), IC50, 1 nM GSK3α, 4 μM ATP, 30 minute preincubation (Table 16)
[11] = read-out: GSK3-B TR-FRET BIOCHEMICAL (TR-FRET);, 1 nM GSK3b, 2 μM ATP, 30 minute preincubation, Table 16
[12] = read-out: GSK3-A TR-FRET BIOCHEMICAL (TR-FRET);, 1 nM GSK3α, 4 μM ATP, 30 minute preincubation, Table 16

Compound | IC50 [1, 3] | IC50 [1, 4] | IC50 [2, 5] | IC50 [2, 6] | also measured
CC[C@]1(c2cccc(-c3ccnn3C)c2)C2=C(CC3(CCC3)NC2=O)Nc2n[nH]cc21 | 1000 to 5000 nM | < 100 nM | 100 to 1000 nM | < 100 nM | –
CCC1(c2ccccc2)C(C(C)=O)=C(C)Nc2n[nH]cc21 (stereo not drawn) | – | – | – | – | IC50 [1, 7]: > 5000 nM; IC50 [2, 8]: > 5000 nM
CCC1(c2cccc(-c3cc(C)ncc3F)c2)C2=C(CC(C)(C)NC2=O)Nc2n[nH]cc21 (stereo not drawn) [Compound 947804] | > 5000 nM | 100 to 1000 nM | 100 to 1000 nM | < 100 nM | –
CC[C@]1(c2cccc(-c3ccnc(C)c3)c2)C2=C(CC(C)(C)C2=O)Nc2n[nH]cc21 | – | – | – | – | IC50 [1, 9]: > 5000 nM; IC50 [2, 10]: 1000 to 5000 nM
CC[C@@]1(c2cccc(-c3ccnc(C)c3C)c2)C2=C(CC(C)(C)NC2=O)Nc2n[nH]cc21 | – | > 5000 nM | – | 1000 to 5000 nM | –
CC(C)(C)Cc1[nH]nc2c1[C@@]1(COc3ccccc31)C1=C(CC(C)(C)CC1=O)N2 | > 5000 nM | – | > 5000 nM | – | –
CC[C@]1(c2cccc(-c3c(F)cncc3OC)c2)C2=C(CC(C)(C)NC2=O)Nc2n[nH]cc21 | 100 to 1000 nM | < 100 nM | < 100 nM | < 100 nM | –
CCC1(c2cccc(-c3cnn4c3CCCC4)c2)C2=C(CC(C)(C)NC2=O)Nc2n[nH]c(C)c21 (stereo not drawn) | – | – | – | – | IC50 [1, 7]: 100 to 1000 nM; IC50 [2, 8]: < 100 nM
CCC1(c2cccc(Cl)c2)C2=C(CC(C)(C)CC2=O)Nc2n[nH]c(C)c21 (stereo not drawn) [Compound 790611] | – | 100 to 1000 nM | – | < 100 nM | –
CCC1(c2cccc(-c3cnn(C)c3)c2)C2=C(CC(C)(C)NC2=O)Nc2n[nH]c(F)c21 (stereo not drawn) [Compound 949011] | – | 100 to 1000 nM | – | < 100 nM | –
CC[C@@]1(c2cccc(-c3cc(C)ncc3C)c2)C2=C(CC(C)(C)CC2=O)Nc2n[nH]cc21 | – | – | – | – | IC50 [1, 11]: < 100 nM; IC50 [2, 12]: < 100 nM
CC[C@]1(c2cccc(Oc3ncccn3)c2)C2=C(CC(C)(C)NC2=O)Nc2n[nH]c(Cl)c21 | 100 to 1000 nM | – | < 100 nM | – | IC50 [1, 9]: < 100 nM; IC50 [2, 10]: < 100 nM
CCC1(c2cccc(N(C)c3cc(C)cc(C)n3)c2)C2=C(CC(C)(C)CC2=O)Nc2n[nH]cc21 (stereo not drawn) | – | – | – | – | IC50 [1, 11]: 100 to 1000 nM; IC50 [2, 12]: < 100 nM
CC[C@@]1(c2ccc(OC(C)C)cc2)C2=C(CC(C)(C)CC2=O)Nc2n[nH]c(C(F)(F)F)c21 | – | – | – | – | IC50 [1, 11]: 100 to 1000 nM; IC50 [2, 12]: 100 to 1000 nM
CC[C@]1(c2cccc(N3CCOCC3)c2)C2=C(CC(C)(C)CC2=O)Nc2n[nH]c(C)c21 | – | – | – | – | IC50 [1, 9]: < 100 nM; IC50 [2, 10]: < 100 nM
CCC1(c2ccccc2)C2=C(CC(C)(C)CC2=O)Nc2n[nH]c(C(F)(F)F)c21 (stereo not drawn) | – | < 100 nM | – | < 100 nM | –
CC[C@]1(c2cccc(-c3ccncc3C)c2)C2=C(CC3(CCOCC3)NC2=O)Nc2n[nH]cc21 | 1000 to 5000 nM | < 100 nM | 100 to 1000 nM | < 100 nM | –
CC[C@]1(c2cccc(OC)c2)C2=C(CC(C)(C)CC2=O)Nc2n[nH]c(C(F)(F)F)c21 (single isomer, unassigned) | – | – | – | – | IC50 [1, 9]: 1000 to 5000 nM; IC50 [2, 10]: 100 to 1000 nM
CC[C@@]1(c2cccc([C@@H](C)c3ncccn3)c2)C2=C(CC(C)(C)CC2=O)Nc2n[nH]cc21 | 1000 to 5000 nM | – | 100 to 1000 nM | – | IC50 [1, 11]: < 100 nM; IC50 [2, 12]: < 100 nM
CC[C@@]1(c2cccc(C(C)C)c2)C2=C(CC(C)(C)NC2=O)Nc2n[nH]c(C(F)(F)F)c21 | 100 to 1000 nM | – | < 100 nM | – | IC50 [1, 9]: < 100 nM; IC50 [2, 10]: < 100 nM
CC[C@]1(c2cccc(C(F)(F)F)c2)C2=C(CN(Cc3ccccc3)C2=O)Nc2n[nH]cc21 | – | – | – | – | IC50 [1, 7]: > 5000 nM; IC50 [2, 8]: 1000 to 5000 nM
CC[C@]1(c2cccc(-c3ccncc3)c2)C2=C(CC(C)(C)CC2=O)Nc2n[nH]c(C(F)(F)F)c21 | < 100 nM | – | < 100 nM | – | IC50 [1, 9]: < 100 nM; IC50 [2, 10]: < 100 nM
CC[C@]1(c2cccc(-c3ccncc3C)c2)C2=C(C[C@]3(CCCOC3)NC2=O)Nc2n[nH]cc21 | – | 1000 to 5000 nM | – | 100 to 1000 nM | –
CC[C@@]1(c2cccc(-c3cc(C)nn3C)c2)C2=C(Nc3n[nH]cc31)[C@@H](F)C(C)(C)CC2=O | – | – | – | – | IC50 [1, 11]: 100 to 1000 nM; IC50 [2, 12]: < 100 nM
CC[C@@]1(c2cccc(C(F)F)c2)C2=C(CC(C)(C)CC2=O)Nc2n[nH]c(C(F)(F)F)c21 | – | – | – | – | IC50 [1, 11]: 100 to 1000 nM; IC50 [2, 12]: < 100 nM
CC[C@]1(c2cccc(N(C)c3cccc(F)n3)c2)C2=C(CC(C)(C)CC2=O)Nc2n[nH]cc21 | – | – | – | – | IC50 [1, 9]: > 5000 nM; IC50 [2, 10]: > 5000 nM
CCC1(c2cccc(N(C)C(=O)c3ccccc3)c2)C2=C(CC(C)(C)CC2=O)Nc2n[nH]cc21 (stereo not drawn) | – | – | – | – | IC50 [1, 9]: 100 to 1000 nM; IC50 [2, 10]: < 100 nM
CC[C@@]1(c2cccc(-c3ccnc(C)c3)c2)C2=C(CC3(CCCC3)NC2=O)Nc2n[nH]cc21 | – | < 100 nM | – | < 100 nM | –
